Our source for the binding signal values is article PMC7723054.

Some of the results follow.

Holding throughout (experiment): FOREST: bead pull-down of RNA structure library v1, barcode microarray; U1A/LIN28A: 20 mM HEPES pH 7.5, 80 mM KCl, 20 mM NaCl, 10% glycerol, 2 mM DTT, 0.1 ug/uL BSA, 4 C; BG4/CIRBP/DHX36: 10 mM Tris-HCl pH 7.5, 100 mM KCl (or LiCl),; high values mean tight binding
One test addresses T1, LIN28A (human?, UniProt Q9H9Z2 1-209).
T1 sequence: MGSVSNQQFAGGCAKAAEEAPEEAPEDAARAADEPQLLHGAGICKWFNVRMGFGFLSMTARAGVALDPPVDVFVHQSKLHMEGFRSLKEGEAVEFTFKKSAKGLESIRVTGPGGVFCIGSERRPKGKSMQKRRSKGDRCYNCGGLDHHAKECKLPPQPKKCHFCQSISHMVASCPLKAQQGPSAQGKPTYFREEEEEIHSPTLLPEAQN

Another test has as its target T2, CIRBP (Homo sapiens, UniProt Q14011 1-172).
T2 sequence: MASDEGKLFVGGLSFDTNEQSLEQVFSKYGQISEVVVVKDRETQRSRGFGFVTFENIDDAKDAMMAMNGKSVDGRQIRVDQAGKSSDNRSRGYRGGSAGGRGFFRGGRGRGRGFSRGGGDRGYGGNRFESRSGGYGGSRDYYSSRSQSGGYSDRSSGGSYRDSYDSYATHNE

The next test has as its target T3, DHX36 (Homo sapiens, UniProt Q9H2U1 1-1008).
T3 sequence: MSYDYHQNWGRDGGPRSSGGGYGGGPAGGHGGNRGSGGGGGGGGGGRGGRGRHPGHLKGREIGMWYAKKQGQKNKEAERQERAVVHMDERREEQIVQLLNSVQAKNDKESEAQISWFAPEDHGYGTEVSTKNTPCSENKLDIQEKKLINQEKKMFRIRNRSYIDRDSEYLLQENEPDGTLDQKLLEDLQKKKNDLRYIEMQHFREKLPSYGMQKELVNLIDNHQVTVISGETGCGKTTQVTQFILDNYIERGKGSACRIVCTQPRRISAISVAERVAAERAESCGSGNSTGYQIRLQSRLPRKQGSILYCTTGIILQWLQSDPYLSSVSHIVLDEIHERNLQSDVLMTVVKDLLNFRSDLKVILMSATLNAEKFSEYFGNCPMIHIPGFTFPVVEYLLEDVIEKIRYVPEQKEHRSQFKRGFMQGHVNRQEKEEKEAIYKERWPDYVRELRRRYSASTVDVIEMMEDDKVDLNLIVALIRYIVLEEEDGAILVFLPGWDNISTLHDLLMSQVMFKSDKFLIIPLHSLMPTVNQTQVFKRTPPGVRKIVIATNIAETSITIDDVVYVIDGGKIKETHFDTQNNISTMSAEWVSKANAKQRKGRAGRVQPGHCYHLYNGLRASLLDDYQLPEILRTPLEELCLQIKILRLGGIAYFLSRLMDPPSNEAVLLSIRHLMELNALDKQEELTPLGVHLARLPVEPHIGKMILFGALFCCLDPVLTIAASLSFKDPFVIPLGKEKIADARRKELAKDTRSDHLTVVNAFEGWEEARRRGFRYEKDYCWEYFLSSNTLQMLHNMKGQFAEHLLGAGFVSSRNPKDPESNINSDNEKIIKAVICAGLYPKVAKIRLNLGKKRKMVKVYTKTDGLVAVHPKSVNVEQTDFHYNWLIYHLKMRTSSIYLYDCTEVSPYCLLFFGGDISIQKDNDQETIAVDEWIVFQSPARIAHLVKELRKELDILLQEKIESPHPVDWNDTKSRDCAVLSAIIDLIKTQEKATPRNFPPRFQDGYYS

B1: hsa-mir-8074 (structured_RNA)
RNA: GGGAAGGGCCCAUCCUUCUACACUUGAGGGUGUACGAAGUUUCAGCAUGGGAGCCCAGAGACGUCCUAUGCUGAAGCUUCGUGCAC
Take B1: the binding signal in the test with LIN28A was -0.114 z-score; with CIRBP, -1.35 z-score; with DHX36 it was -0.626 z-score.

B2: hsa-mir-3153 (structured_RNA)
RNA: GGGAAACUGCGUGUUAUGAUGUUCUGGCGGUGUACGAAGUUUCAGCCCCCCAAUUAAAGUAGAUUGGGGGGCUGAAGCUUCGUGCAC
Turning to B2, the figures for the binding signal with LIN28A, in the test with CIRBP and with DHX36 were -0.0885 z-score, -0.218 z-score and 0.596 z-score, respectively.

B3: hsa-mir-513b (structured_RNA)
RNA: GGGAAGGGGAAUGUCAUAACUGUAAACGGGUGUACGAAGUUUCAGCAUUUAUGUGAACUAAAAUAUAAAUGCUGAAGCUUCGUGCAC
Consider B3, for which the binding signal in the test with LIN28A was -0.0955 z-score; with CIRBP it was -0.548 z-score; with DHX36, -0.321 z-score.

B4: hsa-mir-578 (structured_RNA)
RNA: GGGAGAAUAAUUCAGUCCGGCAAGGGCAGGUGUACGAAGUUUCAGCGAAGCUCCUAUAGCUCCUGUAGCUUCGCUGAAGCUUCGUGCAC
As to B4, the results for the binding signal with LIN28A, with CIRBP and with DHX36 were -0.112 z-score, 0.607 z-score and 0.639 z-score, respectively.

B5: hsa-mir-4443 (structured_RNA)
RNA: GGGAGAAAAUAUCGGGGACCAGAGACUCGGUGUACGAAGUUUCAGCUUUUAGAAGCUGAAGCUUCGUGCAC
For the molecule B5, the figures for the binding signal in the test with LIN28A, with CIRBP and with DHX36 were -0.0901 z-score, 0.312 z-score and -0.794 z-score, respectively.

B6: hsa-mir-4419a (structured_RNA)
RNA: GGGAUACAAGCGUUUGACGUGUCAGUCUGGUGUACGAAGUUUCAGCCUCGGGAGGCUGAGGCUGAAGCUUCGUGCAC
In the case of B6, the binding signal is -0.0873 z-score in the test with LIN28A, 0.126 z-score with CIRBP and -0.34 z-score with DHX36.

B7: hsa-mir-6860 (structured_RNA)
RNA: GGGACACGCUAUACCAACACUCUCCGUAGGUGUACGAAGUUUCAGCGAGUUUGGAGUCGGUGGGUGGAGCCAAACUGGCUGAAGCUUCGUGCAC
B7: the results for the binding signal with LIN28A, with CIRBP and with DHX36 were -0.13 z-score, -0.454 z-score and 2.41 z-score, respectively.

B8: hsa-mir-4491 (structured_RNA)
RNA: GGGAGAAACCCAUGUUAGGACCCGCCUAGGUGUACGAAGUUUCAGCCAUUAACGUGGACCAGACAAUAUUAAUGGCUGAAGCUUCGUGCAC
With B8, the binding signal in the test with LIN28A is -0.0863 z-score; in the test with CIRBP it was 0.374 z-score; with DHX36, 0.0951 z-score.

B9: hsa-mir-3921 (structured_RNA)
RNA: GGGAACAUCGACUGGGCUAGCAGAUAUCGGUGUACGAAGUUUCAGCGAGACUUAGAAAUCCCUAAGUCUCGCUGAAGCUUCGUGCAC
Consider B9, for which the binding signal in the test with LIN28A was -0.131 z-score; in the test with CIRBP, 0.673 z-score; in the test with DHX36, -0.425 z-score.

B10: NEAT1_ParasoR_ID5 (structured_RNA)
RNA: GGGAAGGGCAGCUGGACCUACCCAAUUAGGUGUACGAAGUUUCAGCGGAACUGCCAAACUAUUUUCCGCUGAAGCUUCGUGCAC
On to B10, for which the binding signal with LIN28A is -0.11 z-score; with CIRBP it was 0.403 z-score; in the test with DHX36, -0.0134 z-score.

B11: hsa-mir-4513 (structured_RNA)
RNA: GGGACAUUUUGAGACUGGCCGGGAGUUGGGUGUACGAAGUUUCAGCCCAUAAGCUGUCUAAAACUUCGGCUGAAGCUUCGUGCAC
With B11, the binding signal was -0.129 z-score with LIN28A, 0.0114 z-score with CIRBP and 0.304 z-score with DHX36.

B12: hsa-mir-4301 (structured_RNA)
RNA: GGGAAACCCACGUUCUGCCCAAUACUAUGGUGUACGAAGUUUCAGCGUGAACAUUGCAUGCUGAAGCUUCGUGCAC
For B12, the binding signal with LIN28A was -0.0884 z-score; in the test with CIRBP it was 0.213 z-score; with DHX36, -1.21 z-score.

B13: hsa-mir-548an (structured_RNA)
RNA: GGGAAACUUUAUUAAACCUUACCGGGCCGGUGUACGAAGUUUCAGCUUUGCCUAUAAAAGUAAUGGCAAAGCUGAAGCUUCGUGCAC
B13: the binding signal was -0.114 z-score with LIN28A, -1.4 z-score in the test with CIRBP and -0.308 z-score with DHX36.

B14: hsa-mir-4510 (structured_RNA)
RNA: GGGAAUCCAGCGUCUGUGUCACGGGAAAGGUGUACGAAGUUUCAGCGGUUGUUAGAUAGACAACUGCUGAAGCUUCGUGCAC
For B14, the binding signal with LIN28A was -0.11 z-score; in the test with CIRBP, -0.39 z-score; with DHX36, -0.621 z-score.

B15: hsa-mir-1470 (structured_RNA)
RNA: GGGACUGUGGUUAACGCCUGACCCCUAGGGUGUACGAAGUUUCAGCCCGGGGCAGGAGACCCCGCGGCUGAAGCUUCGUGCAC
For the molecule B15, the results for the binding signal in the test with LIN28A, with CIRBP and with DHX36 were -0.109 z-score, 0.973 z-score and -0.105 z-score, respectively.

B16: hsa-mir-676 (structured_RNA)
RNA: GGGAAACCACCUAGGUCCACAUGCAUACGGUGUACGAAGUUUCAGCCUUGCAGAAUUAAUGGAAUGCUGGCUGAAGCUUCGUGCAC
As for B16, the binding signal with LIN28A was -0.113 z-score; in the test with CIRBP it was 0.447 z-score; with DHX36, -0.491 z-score.

B17: hsa-mir-423 (structured_RNA)
RNA: GGGAAAUACGGGUUGACUGUUUUGUUGCGGUGUACGAAGUUUCAGCGACUUUUCUAUUUUCCAAAAGCGCUGAAGCUUCGUGCAC
Take B17: the values for the binding signal with LIN28A, with CIRBP and with DHX36 were -0.127 z-score, 0.873 z-score and -0.603 z-score, respectively.

B18: hsa-mir-8053 (structured_RNA)
RNA: GGGAAAGAAUCCUGGUUUAGCCGCCUCAGGUGUACGAAGUUUCAGCGGCAGAAAUGUCGCUGAAGCUUCGUGCAC
Turning to B18, the binding signal with LIN28A is -0.103 z-score; in the test with CIRBP, 0.971 z-score; with DHX36, -0.422 z-score.

B19: hsa-mir-934 (structured_RNA)
RNA: GGGAACAUGCGCCGUGGGUCUAUAGUUAGGUGUACGAAGUUUCAGCCUGGUAGUAUAAAACCCAGGCUGAAGCUUCGUGCAC
On to B19, for which the binding signal with LIN28A is -0.128 z-score; with CIRBP, 0.204 z-score; with DHX36 it was -0.648 z-score.

B20: hsa-mir-504 (structured_RNA)
RNA: GGGAAAGCAUGGGUCGGAGGUUGGACAAGGUGUACGAAGUUUCAGCUCUAUCUGUAUUCUUACUGAAGGGAGCUGAAGCUUCGUGCAC
Consider B20, for which the binding signal is -0.12 z-score with LIN28A, -0.717 z-score with CIRBP and 0.467 z-score in the test with DHX36.

B21: hsa-mir-3202-2 (structured_RNA)
RNA: GGGAAACCGCGAGACACGGCGUAUCAUAGGUGUACGAAGUUUCAGCUAAUGCUCUGAAAAUGACUCCAAUCAUUAGCUGAAGCUUCGUGCAC
As for B21, the binding signal was -0.101 z-score with LIN28A, -0.507 z-score with CIRBP and -1.19 z-score with DHX36.

B22: hsa-mir-3915 (structured_RNA)
RNA: GGGACAGAAUGUACUGGCCAUGCAGUGGGGUGUACGAAGUUUCAGCUAUUGCAAAGAUUUUCAAUAGCUGAAGCUUCGUGCAC
In the case of B22, the binding signal is -0.0997 z-score in the test with LIN28A, -0.518 z-score with CIRBP and 0.88 z-score with DHX36.

B23: hsa-mir-759 (structured_RNA)
RNA: GGGAACGGGUUACGUUGAAAUUCCGACGGGUGUACGAAGUUUCAGCUGACUCAGAUCUGCUGAAGCUUCGUGCAC
Take B23: the binding signal was -0.131 z-score with LIN28A, 0.00142 z-score in the test with CIRBP and -1.08 z-score with DHX36.

B24: hsa-mir-4681 (structured_RNA)
RNA: GGGACAGUUACGUAAUUGGCUCUUUGGUGGUGUACGAAGUUUCAGCAUCUGCAGGGCAUUGUGCUAACAGGUGCUGAAGCUUCGUGCAC
Take B24: the binding signal in the test with LIN28A is -0.114 z-score; with CIRBP it was -0.599 z-score; in the test with DHX36, -0.527 z-score.

B25: hsa-mir-3681 (structured_RNA)
RNA: GGGACCUAGAAAGGCAGCGCCAGAUAAAGGUGUACGAAGUUUCAGCCUGUGCAGGGCCAACUGUGCACACGCUGAAGCUUCGUGCAC
In the case of B25, the values for the binding signal in the test with LIN28A, in the test with CIRBP and with DHX36 were -0.091 z-score, 1.25 z-score and 0.178 z-score, respectively.

B26: hsa-mir-369 (structured_RNA)
RNA: GGGAAGCACGACUAGGAUUUUCUACACGGGUGUACGAAGUUUCAGCUAUUCGCUUUAUUGACUUCGAAUAGCUGAAGCUUCGUGCAC
Turning to B26, the binding signal with LIN28A was -0.097 z-score; with CIRBP, -0.933 z-score; with DHX36 it was -0.622 z-score.
